From patent US7585997B2, “Compounds and compositions for treating dysproliferative diseases, and methods of use thereof” (Chesterford Enterprises Limited, priority 2003, dated 2009) come the findings set out here.

Like-named read-outs stand apart in the source and are kept apart here.

Data set [1] deals with HCT-15 human colon adenocarcinoma. In words: Cell growth inhibition, HCT-15 cells. Particulars: HCT-15, colon.
Data set [2] deals with A-431, carcinoma of the skin. Briefly: Cell growth inhibition, A-431 cells. The following applies: A-431, skin.
Data set [3] has as its system A549, carcinoma of the lung. In words: Cell growth inhibition, A549 cells.
For data set [4], the system named is SSC-25, squamous cell carcinoma of the tongue. Briefly: Cell growth inhibition, SSC-25 cells. Particulars: SSC-25, tongue.
In data set [5] the test system is BxPC3, carcinoma of pancreas. Briefly: Cell growth inhibition, BxPC3 cells. The format is cell-based, human.
In data set [6] the test system is LNCaP, carcinoma of the prostate. Briefly: Cell growth inhibition, LNCaP cells.
Data set [7] deals with Min (Apcmin/+) mouse model of intestinal cancer. In words: Inhibition of gastrointestinal tumors in Min mice. The following applies: 100 mg/kg/day oral gavage, 21 days.
The subject of data set [8] is HT-29 human colon adenocarcinoma. Briefly: Cell growth inhibition, HT-29 cells. Format: cell-based.
Data set [9] is described as follows: Body weight and toxicity in wild type and Min mice. Particulars: 100 mg/kg/day oral; for Body Weight, End / Body Weight, Start: mean±SD.
Data set [10] concerns MCF-7, carcinoma of the breast. Briefly: Cell growth inhibition, MCF-7 cells. Particulars: MCF-7, breast.
For data set [11], the system named is MIA-Paca2, carcinoma of pancreas. Briefly: Cell growth inhibition, MIA-Paca2 cells.

As for “4-O-[2-(3-fluoro-4-phenyl)phenyl propionyl]-4-hydroxybenzyl nitrate”, the half-maximal inhibitory concentration (IC50) in [1] (24 hr) turned out to be 62 µM; in [1] (48 hr), 35 µM; in data set [1] (72 hr) it was 15 µM; in data set [2] (24 hr), 48 µM; in [2] (48 hr) it was 40 µM; in data set [2] (72 hr), 29 µM. Besides, the IC50 in data set [3] (24 hr) turned out to be 65 µM; in [3] (48 hr), 58 µM; in [4] (24 hr) it was 8 µM; in [4] (48 hr) it was 6 µM; in [5] (24 hr) it was 25 µM; in data set [5] (48 hr) it was 20 µM. The IC50 amounted to 35 µM in [6] (24 hr); 15 µM in [6] (48 hr); 49 µM in [8] (HT-29, colon, 24 hr); 41 µM in data set [8] (HT-29, colon, 48 hr); 28 µM in data set [8] (HT-29, colon, 72 hr); 77 µM in data set [10] (24 hr). The IC50 in data set [10] (48 hr) stood at 59 µM; in data set [11] (24 hr), 72 µM; in [11] (48 hr) it was 65 µM. Also, in [7], the “tumor size versus vehicle-treated Min mice, on inspection” value is “far smaller”. For the same substance, the “reduction of the number of tumors” value in data set [7] (small intestine) is 95.6%. Further, the “number of tumors in treated animals” value in [7] (small intestine, mean±SD, N=10) stood at 1.4±2.8. Further, the “effect on body weight of mice” value in [9] (21 days) is “did not affect the body weight”. The “gastrointestinal toxicity at necropsy” value in data set [9] (21 days) is “no evidence of gastrointestinal toxicity”. Besides, in data set [9] (21 days), the “other toxicity, examination of abdominal organs” value was “No other toxicity was noted”. Moreover, the “Body Weight, End” value in data set [9] (Min mice, 21 days) is 17.3 ± 0.3 g; in data set [9] (Wild type mice, 21 days), 16.7 ± 0.3 g. Besides, the “Body Weight, Start” value in [9] (Min mice) was found to be 15.1 ± 0.5 g; in [9] (Wild type mice), 14.8 ± 0.4 g.
“2-(acetyloxy)benzoic acid 4-(nitromethyl)phenyl amide”: the half-maximal inhibitory concentration (IC50) in [8] (read-out: IC50, HT-29, colon, 24 hr) is 25 µM.
